High-throughput results: PubChem, ICCB-Longwood Screening Facility, Harvard Medical School
Shown are actives, neighbours in structure and some others; about 0.43% of the full set was active somewhere.
GIV Gai3 FP: blocks GIV peptide binding to rat Galpha-i3. P08753. Galpha-i3/FITC-GIV peptide fluorescence polarization, 90 min; stronger effect = lower value; scaled: aluminum fluoride 0%, vehicle 100%. percent of control (FP), % (test concentration not listed). 0.42% of 210,000 active. AID 1224905;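 active = replicate mean at 85% of control or lower, very high polarization wells dropped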;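 note: wells of about 15 µL received 100 nL stock; the first replicate is given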
HCMV UL50-53 inh: cytomegalovirus nuclear egress complex inhibition | HTRF UL50-UL53 interaction, normalized percent inhibition | inhibition, % (concentration not given with the values) | 190,000 tested, 0.15% active | AID 1918969; in the data active = inhibition above about 27%, passing the limit was not always enough
GIV Gai FP conf: confirmation of inhibitors of GIV binding to rat Galpha-i3 | fluorescence polarization, mP at 100 µM | shares compounds with GIV Gai3 FP | FITC-GIV peptide binding to Galphai3, fluorescence polarization; active compounds read low | 580 tested, 38% active;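 active = inhibition score of 15 or more, meaning 100 minus mean polarization as percent of control over three replicates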;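 also: lower mP means peptide displaced from Galphai3 so more inhibition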
GIV Gai AS conf: GIV-Galpha-i3 inhibition, AlphaScreen confirmation. shares compounds with GIV Gai3 FP. AID 1259351. AlphaScreen Galphai3-GIV binding, purified proteins, 90 min; active compounds read low. 580 tested, 39% active. AlphaScreen counts at 100 µM;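 active = inhibition score at or above a set limit, where the score is 100 minus the three-replicate mean percent of control signal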
Large screens that a line does not name were inactive (follow-up assays come after a bar, where they were run).

N#Cc1c(N)[n+]([O-])c2ccccc2[n+]1[O-]	GIV Gai3 FP -31
O=c1c2cc(F)ccc2ncn1Cc1cn2ccccc2n1	none (no result: GIV Gai3 FP)
CC(CN1CC2CC(C1)c1cccc(=O)n1C2)SC(=N)N (centres undefined)	none (no result: GIV Gai3 FP)
Cn1c(=O)[nH]c2nncnc2c1=O	HCMV UL50-53 inh 78
CCCCCCCCCCn1c(CBr)c(C(=O)OCC)c2cc(OC(C)=O)ccc21	none (no result: HCMV UL50-53 inh)
C1=C(c2cccnc2)Nc2ncnn2C1c1cccs1 (centres undefined)	GIV Gai3 FP -74
CCOC(=O)c1cc(CC)sc1/N=C/C1C(=O)NC(=S)NC1=O	GIV Gai3 FP -36 (no result: HCMV UL50-53 inh)
CCOC(=O)C1C2NC(=S)NC1(C)Oc1ccccc12 (centres undefined)	none
CCOP(=S)(NC(C)(C)C)OCC	none
CCOC(=O)c1c(C)n(C2CCCCC2)c2cc(Br)c(OC(C)=O)cc12	none (no result: HCMV UL50-53 inh)
O=C1NC(=O)C(=Cc2ccccc2OCCOc2ccc([N+](=O)[O-])cc2)C(=O)N1	none
CC(C)(C)c1ccc(OCCOc2ccccc2C=C2C(=O)NC(=O)NC2=O)cc1	HCMV UL50-53 inh 65
O=c1cccc2n1CC1CC2CN(c2nc(Cl)nc(Cl)n2)C1 (centres undefined)	none
CN1C(=O)C(=Cc2ccccc2OS(=O)(=O)c2ccccc2)C(=O)N(C)C1=O	none
COc1cc(C=C2C(=O)N(C)C(=O)N(C)C2=O)ccc1OS(=O)(=O)c1ccccc1	HCMV UL50-53 inh 62
CN1CCN(Cc2cc(C3CC3)on2)CC1	none (no result: HCMV UL50-53 inh)
Cn1cc(C(=O)OCC(=O)Nc2ccc(Cl)cn2)c2ccccc21	none (no result: GIV Gai3 FP)
N#CC(C#N)=Cc1ccc(O)cc1	none (no result: GIV Gai3 FP)
CCN(CC)c1ccc(C=C(C#N)C#N)cc1	GIV Gai3 FP 51
C[C@]12CCC(=O)C(O)=C1CC[C@@H]1[C@H]2CC[C@]2(C)C(=O)CC[C@@H]12	none (no result: GIV Gai3 FP)
C[N+]1(CCCl)CC[N+](C)(CCCl)CC1 (centres undefined)	none (no result: GIV Gai3 FP)
CC(=O)N1c2ccc(C)cc2C2CN(C)CCC21 (centres undefined)	none (no result: HCMV UL50-53 inh)
Cc1ccc2c(c1)C1CN(C)CCC1N2 (centres undefined)	GIV Gai3 FP 84
CCOC(=O)C1=C(C)NC(=O)NC1c1cc(C)cc(N(CCCl)CCCl)c1 (centres undefined)	none (no result: HCMV UL50-53 inh)
Cn1c(CCCC(=O)O)nc2cc(N(CCCl)CCCl)ccc21	HCMV UL50-53 inh 67
CN(C)C1C(=O)C(C(N)=O)=C(O)[C@@]2(O)C(=O)C3=C(O)c4c(O)cccc4[C@@](C)(O)[C@H]3C(O)[C@@H]12 (some centres undefined)	none (no result: GIV Gai3 FP)
O=Cc1cn(Cc2ccc(Cl)cc2)c2ccccc12	none (no result: GIV Gai3 FP)
O=C1NC(=O)C(=Cc2cn(Cc3ccccc3)c3ccccc23)C(=O)N1	GIV Gai3 FP -5.9 (no result: HCMV UL50-53 inh)
O=C(O)c1cccc2c1NC(c1cccc(Br)c1)C1CC(Sc3ccccc3[N+](=O)[O-])C(Cl)C21 (centres undefined)	none (no result: HCMV UL50-53 inh)
Cc1cc2n(n1)CCCN2C(=O)CCC(=O)Nc1ccc(Cl)cc1C(=O)c1ccccc1	none
CCOc1cc(C=C2C(=O)NC(=O)NC2=O)cc(Cl)c1O	GIV Gai3 FP 72 | GIV Gai FP conf inactive | GIV Gai AS conf 5092
COc1cc(C=C2C(=O)NC(=O)NC2=O)cc(Cl)c1OCCOc1ccccc1	none
CN1C(=O)N(C(=O)c2ccccc2)C(=O)C(C)(C2=CCCCC2)C1=O (centres undefined)	none
CCn1cc(C(=O)c2ccccc2)c2ccccc21	none
CCn1cc(C=C2C(=O)NC(=O)NC2=O)c2ccccc21	none | GIV Gai FP conf 19 | GIV Gai AS conf 15779
CCOC(=O)c1c(C)n(Cc2ccccc2)c2c1cc(O)c1c2c(-c2ccccc2)nn1-c1ccccc1	none
CN(N=O)c1ccc(O)c(O)c1	GIV Gai3 FP 37, HCMV UL50-53 inh 102 | GIV Gai FP conf 42 | GIV Gai AS conf 3178
CCCC(=O)N1c2ccc(C)cc2C2CN(C)CCC21 (centres undefined)	none (no result: HCMV UL50-53 inh)
CN1C(=O)/C(=C/c2ccc(I)o2)C(=O)NC1=S	GIV Gai3 FP 46 | GIV Gai FP conf 56 | GIV Gai AS conf 812
O=C1NC(=S)N(c2ccc(Br)cc2)C(=O)/C1=C\c1ccc(-c2ccccc2C(=O)O)o1	none
COCCOC(=O)C1=C(COC)OC(N)=C(C(=O)OC)C12C(=O)Nc1ccccc12 (centres undefined)	none (no result: HCMV UL50-53 inh)
O=C(CNC(=S)N1CC2CC(C1)c1cccc(=O)n1C2)NCc1ccccc1 (centres undefined)	none
NCCc1cc(O)c(O)cc1O	none (no result: GIV Gai3 FP)
NC(Cc1cc(O)c(O)cc1O)C(=O)O (centres undefined)	GIV Gai3 FP 71, HCMV UL50-53 inh 76 | GIV Gai FP conf 34 | GIV Gai AS conf 2389
